# Only a part is listed here, and it is no random draw. Results filed as inconclusive are left out. Active and inactive are the calls of the source. Cut-off read from the data, not from the text of the source: active = max dye-equivalent concentration above about 10 nM; inconclusive = mostly about 1.1 nM to 9.6 nM; inactive = weaker than that.
# Assay: qHTS Assay for Spectroscopic Profiling in 4-MU Spectral Region
# Settings: compound autofluorescence, 340/450 nm, 4-MU equivalents
# Source text: NIH Molecular Libraries Screening Centers Network [MLSCN] NIH Chemical Genomics Center [NCGC] […] Occasionally, the artifactual effect may originate from the compounds own spectral or other biophysical properties which generally tend to track its assay concentration. Pre-screening/profiling the library with respect to the compounds spectral properties should help one exclude false positives early on. While the most informative fluorescent profiling data set is obtained by performing a full excitation and emission scan of each well by using a monochromator-based plate reader, such an approach is practical only on a very limited scale as scanning each well requires long time. An alternative approach, applied here, is to perform plate reader scans using selected excitation and emission wavelength pairs to generate a multidimensional relational database that correlates compound concentration and the respective relative fluorescence intensity at a given wavelength set. A standard curve of 4-methylumbelliferone (4-MU) present on each plate as six-point concentration series, was used to compute a normalized fluorescence response, termed dye-equivalent concentration, for each compound at each concentration.
# NCGC Assay Protocol Summary: Buffer: 100 mM Tris buffer, pH 8.0 Dye standard plate: The wells in columns 1 through 4 of a Kalypsys polypropylene 1536-well compound plate were filled with standard solutions of fluorophore corresponding to the spectral region of interest. Solutions of 4-MU were placed in the following wells: A1, B1: 3 mM, A2, B2: 300 uM, A3, B3: 30 uM, A4, B4: zero (DMSO), C1, D1: 3 uM, C2, D2: 900 nM, C3, D3: 300 nM, C4, D4: zero (DMSO). Assay Steps: Six uL of buffer were dispensed to 1536-well Greiner black plates. Compounds and dye standards (23 nL) were transferred via Kalypsys PinTool. The plates were incubated for 15 min at room temperature, and then read on ViewLux (Perkin-Elmer) High-throughput CCD imager using 340 nm and 450 nm excitation and emission filter set. Keywords: NIH Roadmap, MLSCN, MLI, MLSMR, qHTS, NCGC, Fluorescent Profiling, 4MU, 4-MU
row,SMILES,outcome
1,NCC[C@@H](N)CSP(=O)(O)O,inactive
2,O=[N+]([O-])c1ccc(C[As](=O)(O)O)cc1,inactive
3,C(Cc1nn[nH]n1)c1nn[nH]n1,inactive
4,[N-]=[N+]=NCC(O)CN=[N+]=[N-] (centres undefined),inactive
5,COc1ccccc1OP(C)(=O)Nc1ccc(C)c(C)c1 (centres undefined),inactive
6,C/C1=C2N=C(/C=C3N=C(/C(C)=C4\[N-][C@@](C)([C@H]5N=C1[C@@](C)(CCC(=O)NC[C@H](C)OP(=O)([O-])O[C@@H]1[C@H](O)[C@H](n6cnc7cc(C)c(C)cc76)O[C@@H]1CO)[C@@H]5CC(N)=O)[C@](C)(CC(N)=O)[C@H]4CCC(N)=O)[C@@](C)(CC(N)=O)[C@@H]\3CCC(N)=O)C(C)(C)[C@@H]/2CCC(N)=O.[C-]#N.[Co+3],inactive
7,CN(C(=O)Cc1ccccc1)[C@@H]1CC[C@@]2(CCCO2)C[C@H]1N1CCCC1,inactive
8,O=C(CO)Nc1ccc([As](=O)(O)O)cc1,inactive
9,COc1ccccc1OP(C)(=O)Nc1c(C)n(C)n(-c2ccccc2)c1=O (centres undefined),inactive
10,CCc1nc2c(n1)c1c(non1O)c1c2no[n+]1[O-],inactive
11,CCN(CC)CC(O)COC(=O)C(O)(c1ccccc1)C1CCCCC1 (centres undefined),inactive
12,N#[O+].[C-]#N.[C-]#N.[C-]#N.[C-]#N.[C-]#N.[Fe+2].[Na+].[Na+],inactive
13,Cc1ccccc1NP(C)(=O)Nc1ccccc1C,inactive
14,C[C@@H](O)COc1ccc([As](=O)(O)O)cc1N,inactive
15,NNC(NN)NN.n1nc(-c2nn[nH]n2)n[nH]1,inactive
16,CCOP(C)(=S)SCC(=O)NC(C)(CC)C(=O)O (centres undefined),inactive
17,c1nnnn1CCn1cnnn1,inactive
18,O=P(Nc1nccs1)(c1ccccc1)c1ccccc1,inactive
19,O=C(OC1CN2CCC1CC2)c1cccc(Cl)c1 (centres undefined),inactive
20,CN(C)CCOC(=O)C(O)(c1ccccc1)C1CCCCC1 (centres undefined),inactive
21,[N-]=[N+]=Nc1ccc([As](=O)(O)O)cc1,inactive
22,COC(=O)c1cc2c(s1)N=C(c1ccccc1)N(C)P2(=O)N1CCOCC1 (centres undefined),inactive
23,CP(=O)(Nc1ccccc1F)Oc1ccccc1 (centres undefined),inactive
24,O=P1(Nc2nc3ccc(Cl)cc3s2)COc2ccccc2O1 (centres undefined),inactive
25,NS(=O)(=O)Cc1ccc([As](=O)(O)O)cc1,inactive

row,SMILES,outcome
1,CCOP1(=S)c2c(C)nn(CCC#N)c2N=C(c2ccc(F)cc2)N1C (centres undefined),inactive
2,NC(=O)Nc1ccc([As](=O)(O)O)cc1,inactive
3,O=[As](O)(O)c1ccc([As](=O)(O)O)cc1,inactive
4,CCOP1(=S)c2c(C)nn(CCC#N)c2N=C(c2ccccc2F)N1C (centres undefined),inactive
5,O=P(Nc1nccs1)(c1ccccc1)c1nc2ccccc2s1 (centres undefined),inactive
6,O=P1(Nc2ccc(Br)cn2)COc2ccccc2OC1,inactive
7,Cc1ccc(OCC(=O)OC2CN3CCC2CC3)cc1 (centres undefined),inactive
8,O=P1(Nc2ncccn2)COc2ccccc2OC1,inactive
9,Cc1nn(-c2ccccc2)c2c1P(=O)(N1CCOCC1)N(C)C(c1ccccc1)=N2 (centres undefined),inactive
10,Cc1nc2ccc3ccccc3c2s1.O=[N+]([O-])c1cc([N+](=O)[O-])c(O)c([N+](=O)[O-])c1,inactive
11,CN(C(=O)Cc1ccc(Cl)c(Cl)c1)[C@@H]1CCCC[C@H]1N1CCCC1,inactive
12,Clc1n[nH]nc1-c1nn[nH][15n]1,inactive
13,CN(CCCl)Cc1cc(Cl)c(NC2=NCCN2)c(Cl)c1,inactive
14,O=P1(Nc2ccccn2)COc2ccccc2OC1,inactive
15,O=C(O)[C@@H](O)c1ccc([As](=O)(O)O)cc1,inactive
16,CP(=O)(NC(=O)Nc1ccccc1)Oc1ccccc1 (centres undefined),inactive
17,O=C(COc1ccccc1)OC1CN2CCC1CC2 (centres undefined),inactive
18,CP(=S)(Nn1cnnc1)Oc1ccccc1 (centres undefined),inactive
19,N1=C(c2nnc(-c3nn[nH]n3)nn2)NNN1,inactive
20,[N-]=[N+]=NCC(N)=O,inactive
21,COc1ccccc1OP(C)(=O)Nc1ccc(C)cc1 (centres undefined),inactive
22,O=[As]c1ccc(S(=O)(=O)NCCO)cc1 (centres undefined),inactive
23,NC(=O)Nc1cc([As](=O)(O)O)cc(I)c1O,inactive
24,O=C(OC1CN2CCC1CC2)C12CC3CC(CC(C3)C1)C2 (centres undefined),inactive

# From PubChem BioAssay AID589 (National Center for Advancing Translational Sciences (NCATS), 2007)
